From PubChem
IL-2 act = activators of IL-2 | 0.065% of 360,000 active | IL-2 activation reporter assay, cell-based qHTS; stimulated with anti-CD3/CD4/CD28 beads; in transgenic mouse T cells | activation, % (series mostly up to about 46 µM); in the data active means activation above about 50%; inconclusive means mostly about 30% to 49%
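First, unstimulated transgenic mouse T cells were exposed to compound for 60 min. Next, anti-CD3/anti-CD4-coated beads with anti-CD28 were added. Finally, after 18 h at 37 degrees C, EGFP and DsRed were imaged.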
ClpP mod = qHTS Assay for Activators of ClpP; purified B. subtilis ClpP, FRET peptide cleavage, 20 min; Potency, µM (doses to about 57.5 µM); 1.9% of 340,000 active; AID 651965, 2013; active means well fitted falling curve with a large enough effect; inconclusive means small, poorly fitted or top-dose-only effect; inactive means no such curve, though single readings can be large or run the other way; further: the source files actives as falling curves though it sought activators and does not explain the sign; nearly all actives have a fitted effect of over 65% in size
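Purified B. subtilis ClpP, 10 microg/mL final in Tris/HCl pH8 with KCl, BSA, glycerol and Tween-20, cleaved an Abz/nitrotyrosine-quenched decapeptide. Fluorescence (ex 320, em 430) was read at 0 and 20 min at room temperature. Delta was normalized to 5.8 microM ADEP and DMSO/no-enzyme controls.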
miR-21 reporter = miR-21 reporter, rising signal | AID 2288 | HeLa miR-21 FLuc reporter, luciferase, 48 h | 340,000 tested, under 10 active | Potency, µM (doses to about 38.3 µM); active = well fitted rising curve with a large enough effect; inconclusive = small, poorly fitted or top-dose-only effect; inactive = no such curve, though single readings can be large or run the other way;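 note: miR-21 action dims this reporter so a rising signal means less miR-21 action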
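HeLa miR-21-FLuc reporter line, endogenous miR-21; 2000 cells/well in DMEM/10% FBS; compound titration up to ~40uM final, 48 h, 37 degree Celsius; luciferase detection reagent, 15 min lysis, CCD luminescence.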
Nrf2 block = blocks Nrf2 signaling | A549 ARE-Fluc reporter, luciferase luminescence, 18-24 h | Potency, µM (top dose mostly 46 µM), hits mostly inhibitors | 2.1% of 360,000 active; further: nearly all actives have a fitted effect of over 60% in size
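Reporter: ARE-Fluc in A549. Exposure: 18-24 h, 37 °C, 5% CO2, 5% FBS OPTI-MEM. Readouts: fluorescent cytotoxicity (CellTiter-Fluor), then luminescent Nrf2 signal after BugLite.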
Nrf2 activator = activators of Nrf2 (ARE) signaling; 0.31% of 410,000 active; AREc32 ARE-luciferase reporter (MCF7-derived line), luminescence, 24 h; Potency, µM (series often up to 46.1 µM), hits mostly activators; further: nearly all actives have a fitted effect of over 65% in size
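Cells of the AREc32 ARE-luciferase line are plated in OPTI-MEM containing 5% FBS and left overnight at 37 deg C. Compounds are pinned in, incubation continues 24 hr, and firefly luciferase signal is then measured.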
A549 viability = A549 cytotoxicity, counter-screen for Nrf2 inhibitors. A549 ARE-Fluc cells, CellTiter-Fluor viability, 18-24 h. Potency, µM (series often up to 46 µM), actives largely listed as inhibitors. 0.16% of 390,000 active
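A549 ARE-Fluc cells in 5% FBS OPTI-MEM, 5000 cells/well, rested 2 h then exposed to compounds in concentration-response for 18-24 h at 37 °C. Viability by CellTiter-Fluor fluorescence (Ex 405/Em 525) after 30 min; luciferase luminescence (BugLite, 15 min, RT) read afterwards.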
Each line names hits and unclear results; the compound was inactive in the other large screens. Shown are actives, neighbours in structure and some others; about 3.7% of the full set was active somewhere. Unless noted, the call rests on the fitted dose curve; in most records, active means well fitted curve in the direction sought with a large enough effect; inconclusive means small, poorly fitted or top-dose-only effect, or another doubt; inactive means no such curve, though single readings can be large; an effect the other way counts as inactive or inconclusive.

O=c1[nH]c2ccccc2cc1CN(c1ccccc1)S(=O)(=O)c1ccccc1	ClpP mod 32µM
Cc1cc(NC(=O)c2cccn2-c2nnc(N3CCCCC3)s2)ccc1Br	ClpP mod inconclusive, Nrf2 block inconclusive (no result: IL-2 act)
COc1ccc(CCNC(=O)C2(c3cccs3)CCOCC2)cc1	none (no result: IL-2 act, Nrf2 block)
N#CN1CCC(NS(=O)(=O)c2ccc(F)cc2)C1 (centres undefined)	none (no result: IL-2 act, ClpP mod, miR-21 reporter, Nrf2 activator)
O=C(NCCc1ccc(F)cc1)C(=O)NCC(c1cccs1)S(=O)(=O)c1ccccc1 (centres undefined)	none (no result: IL-2 act, Nrf2 block)
Cc1ccc(CNC(=O)CN2C(=O)C3CCCCN3c3ccc(C(=O)N4CCCC4)cc32)cc1 (centres undefined)	none (no result: IL-2 act, Nrf2 block)
CCOc1ccc(N(Cc2cc3ccc(C)cc3[nH]c2=O)S(=O)(=O)c2ccccc2)cc1	ClpP mod 32µM
CCOC(=O)c1sc(NC(=O)CSc2n[nH]c(-c3ccccc3)n2)c(C#N)c1C	Nrf2 block 23µM
CCOC(=O)c1sc(NC(=O)CSc2nc(C)cc(C)n2)c(C#N)c1C	Nrf2 block inconclusive
Cc1ccc(S(=O)(=O)Nc2ccccc2N=Cc2ccc([N+](=O)[O-])cc2[N+](=O)[O-])cc1	Nrf2 activator 14µM (no result: miR-21 reporter)
COc1ccc([N+](=O)[O-])cc1NS(=O)(=O)c1ccc(C)cc1	none
CC(C)(C)c1ccc(C(=O)NC(=O)COC(=O)c2ccc(Br)o2)cc1	ClpP mod 32µM (no result: miR-21 reporter)
CCc1cccc(NC(=O)CN(C)S(=O)(=O)c2ccc3c(c2)CCCN3C(C)=O)c1	none (no result: IL-2 act, Nrf2 block)
COc1ccc(OCc2ccc(-c3nc(C#N)c(N4CCN(C)CC4)o3)o2)cc1	ClpP mod 28µM (no result: IL-2 act)
COc1ccc(OCc2ccc(-c3nc(C#N)c(N4CCN(c5cccc(Cl)c5)CC4)o3)o2)cc1	ClpP mod 3.5µM (no result: IL-2 act)
COc1ccc(OCc2ccc(-c3nc(C#N)c(N4CCCCC4)o3)o2)cc1	ClpP mod 28µM, Nrf2 block inconclusive (no result: IL-2 act)
N#Cc1nc(-c2ccc(COc3ccc(Cl)cc3)o2)oc1N1CCN(c2ccccc2)CC1	none (no result: IL-2 act)
COc1ccc(-c2nc(C#N)c(N3CCCCC3)o2)cc1	none
CCN1CCN(c2oc(-c3ccc(COc4ccc(C)cc4)o3)nc2C#N)CC1	ClpP mod 32µM (no result: IL-2 act)
COc1cc(-c2ccc3ncnc(NCC4CCCO4)c3c2)cc(OC)c1OC (centres undefined)	Nrf2 block inconclusive (no result: IL-2 act, ClpP mod, miR-21 reporter, Nrf2 activator)
Cc1ccc2onc(CNC(=O)Nc3cc(F)ccc3F)c2c1	Nrf2 block inconclusive (no result: IL-2 act)
CCS(=O)(=O)c1ccc(N=Nc2ccc(O)c3ncccc23)c(OC)c1	miR-21 reporter inconclusive, Nrf2 block inconclusive, A549 viability 18µM (no result: ClpP mod)
COc1ccccc1N=Nc1ccc(O)c2ncccc12	Nrf2 activator inconclusive
CCCCCC(C(=O)O)C(C)CC(=O)NC1CCCCC1 (centres undefined)	ClpP mod 13µM (no result: Nrf2 block)
CC(C)CCC(C(=O)O)C(C)CC(=O)NC1CCCCC1 (centres undefined)	none
FC(F)Sc1ccc(N=C2NN=C(c3ccc4c(c3)OCCO4)CS2)cc1	Nrf2 block 16µM, A549 viability 16µM
c1cc2c(cc1C1=NNC(=NC3CC3)SC1)OCCO2	miR-21 reporter inconclusive, Nrf2 block 2.3µM
COc1ccc(N=C2NN=C(c3ccc4c(c3)OCCO4)CS2)cc1	none
CC(=O)c1cccc(NC(=O)Cn2c(-c3cncs3)nc3ccccc32)c1	none (no result: IL-2 act)
COc1ccc(NS(=O)(=O)c2ccc3c(c2)CCC(=O)N3)cc1	none (no result: IL-2 act, ClpP mod, miR-21 reporter, Nrf2 activator)
Cc1cc([N+](C)(C)C)cc(C)c1/C=C/c1ccnc2ccccc12	none (no result: IL-2 act, miR-21 reporter, Nrf2 block, Nrf2 activator, A549 viability)
CCCN(C(=O)C(C)Oc1cccc(Cl)c1)c1c(N)n(Cc2ccccc2)c(=O)[nH]c1=O (centres undefined)	none
CCCCN(C(=O)C(C)Oc1ccc(Br)cc1)c1c(N)n(Cc2ccccc2)c(=O)[nH]c1=O (centres undefined)	ClpP mod 28µM
COCCN(C(=O)COC(=O)/C=C/c1ccc(SC)cc1)c1c(N)n(Cc2ccccc2)c(=O)[nH]c1=O	ClpP mod 22µM (no result: miR-21 reporter)
CCN(C(=O)COC(=O)/C=C/c1nc2ccccc2s1)c1c(N)n(Cc2ccccc2)c(=O)[nH]c1=O	Nrf2 activator 13µM (no result: miR-21 reporter)
COCCN(C(=O)COC(=O)/C=C/c1ccc(C(F)(F)F)cc1)c1c(N)n(Cc2ccccc2)c(=O)[nH]c1=O	Nrf2 block inconclusive (no result: miR-21 reporter)
CCN(C(=O)COC(=O)C1CCC(C(C)(C)C)CC1)c1c(N)n(Cc2ccccc2)c(=O)[nH]c1=O (centres undefined)	Nrf2 block 13µM (no result: miR-21 reporter)
COc1cc(OC)c(NC(=O)c2csc3c2CCC(C)C3)cc1Cl (centres undefined)	none (no result: IL-2 act)
CCN(C(=O)COC(=O)c1ccc2ccccc2c1)c1c(N)n(Cc2ccccc2)c(=O)[nH]c1=O	Nrf2 block 23µM, A549 viability inconclusive (no result: miR-21 reporter)
CCN(C(=O)COC(=O)c1ccccc1NCc1ccco1)c1c(N)n(Cc2ccccc2)c(=O)[nH]c1=O	none (no result: miR-21 reporter)
CC(C)CN(C(=O)COC(=O)c1ccccc1NCc1ccco1)c1c(N)n(Cc2ccccc2)c(=O)[nH]c1=O	ClpP mod 28µM (no result: miR-21 reporter)
CCN(C(=O)COC(=O)CNC(=O)c1ccc2ccccc2c1)c1c(N)n(Cc2ccccc2)c(=O)[nH]c1=O	none (no result: miR-21 reporter)
CCn1c(CSc2nccn2C)nc2cc(C(=O)O)ccc21	none
CCn1c(CSc2nc3ccccc3[nH]2)nc2cc(C(=O)O)ccc21	ClpP mod 35µM
CN(C)c1ccc(CNC(=O)CN2C(=O)C3CCCCN3c3ccc(C(=O)N4CCCC4)cc32)cc1 (centres undefined)	none (no result: IL-2 act, Nrf2 block)
CCOC(=O)c1ccc(NC(=O)CSc2nc3ccccc3c(=O)n2CCC(=O)NC2CCCCC2)cc1	none (no result: IL-2 act, Nrf2 block)
Cc1ccc(C(=O)Oc2ccc(/C=C3\C(=N)N4N=C(N5CCOCC5)SC4=NC3=O)cc2)cc1	Nrf2 block 7.3µM
N=C1/C(=C\c2ccc(OC(=O)c3ccccc3)cc2)C(=O)N=C2SC(N3CCOCC3)=NN12	none
C=CCn1c(CSCc2ccccc2)nnc1SCC(=O)N1CCN(c2ccccc2)CC1	Nrf2 block inconclusive
CCn1c(CSCc2ccc(C)cc2)nnc1SCC(=O)N1CCN(c2ccccc2)CC1	Nrf2 block 21µM, A549 viability inconclusive
CCCNc1nc(-c2ccccc2)c(C(=O)OCC)cc1C#N	ClpP mod 28µM, A549 viability inconclusive
CCCCNc1nc(-c2ccccc2)c(C(=O)OCC)cc1C#N	ClpP mod inconclusive, A549 viability inconclusive (no result: Nrf2 block)
Cc1cc(-c2csc(NC(=O)c3cccc(S(=O)(=O)N(C)C)c3)n2)c(C)n1-c1ccccc1	ClpP mod 14µM
